One test concerns the target T1, MORFDPF F218A (Homo sapiens, UniProt Q8WYB5, F218A).
T1 construct: Unlabeled and ^15N-labeled WT and mutated MORFDPF (residues 211–322) were expressed in E. coli Rosetta2 (DE3) pLysS cells; GST (N); made in house; host or cells: E. coli Rosetta2 (DE3) pLysS
T1 sequence (Q8WYB5 211-322 F218A): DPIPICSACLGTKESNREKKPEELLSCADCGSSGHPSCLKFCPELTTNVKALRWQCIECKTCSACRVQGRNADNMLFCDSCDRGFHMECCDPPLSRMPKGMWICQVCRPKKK
The test can be described thus: Tryptophan fluorescence binding, MORFDPF F218A. The arrangement: unit not given beside the values. To be noted: source data Fig. 2c, MORF-DPF F218A, unit not given. The procedure:
Spectra were recorded at 25 °C on a Fluoromax-3 spectrofluorometer (HORIBA).

Sequences of proteins named here, by UniProt entry; tags and fusion partners are left off. Residues count along the entry.
UniProt Q8WYB5, 211-322 F287A: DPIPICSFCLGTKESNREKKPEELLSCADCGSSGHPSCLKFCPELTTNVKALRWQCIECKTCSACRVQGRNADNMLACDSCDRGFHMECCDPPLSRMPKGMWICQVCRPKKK
UniProt Q8WYB5, 211-322: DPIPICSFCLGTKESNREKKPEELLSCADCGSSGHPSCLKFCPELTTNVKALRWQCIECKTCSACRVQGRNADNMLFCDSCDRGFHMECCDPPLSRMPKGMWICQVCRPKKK

In another test the target is T2, MORFDPF F287A (Homo sapiens, UniProt Q8WYB5, F287A).
T2 construct: Unlabeled and ^15N-labeled WT and mutated MORFDPF (residues 211–322) were expressed in E. coli Rosetta2 (DE3) pLysS cells; GST (N); made in house; host or cells: E. coli Rosetta2 (DE3) pLysS
T2 sequence (Q8WYB5 211-322 F287A): T1 sequence (Q8WYB5 211-322 F218A) with A8F, F77A
The test can be described thus: NMR 1H,15N HSQC titration, MORFDPF F287A. The test is classed as binding. The protocol: MORFDPF mutants (F287A, D289A, F218A, R276E, R306E/K309E, and F287A/R306E/K309E) were generated using the Quick Change site-directed lightning mutagenesis protocol (Stratagene) (Supplementary Table 2). Unlabeled and ^15N-labeled WT and mutated MORFDPF (residues 211–322) were expressed in E. coli Rosetta2 (DE3) pLysS cells grown in LB or NH4Cl (Sigma-Aldrich) minimal media supplemented with 50 µM ZnCl2. After induction with IPTG (final concentration 0.5 mM) (Gold Biotechnology) for 16 h at 18 °C, cells were harvested via centrifugation and lysed by freeze-thaw followed by sonication. […]
^1H,^15N HSQC spectra were collected at 298 K on Varian INOVA 600 MHz and 900 MHz spectrometers. The binding was monitored by titrating H3 peptides (residues 1–19) into NMR samples containing 0.1–0.25 mM uniformly ^15N-labeled WT or mutated MORFDPF in 1×PBS pH 6.5 buffer supplemented with 5 mM DTT and 8–10% D2O. NMR data were processed and analyzed as previously described. The Kd values were determined by a nonlinear least-squares analysis in Kaleidagraph using the following equation:1 Δδ=ΔδmaxL+P+Kd−L+P+Kd^2−4PL∕2P, where [L] is concentration of the peptide, [P] is concentration of the protein, Δδ is the observed chemical shift change, and Δδmax is the normalized chemical shift change at saturation. […]

Test [1] deals with T3, MORFDPF (residues 211–322) (Homo sapiens, UniProt Q8WYB5).
T3 construct: Unlabeled and ^15N-labeled WT and mutated MORFDPF (residues 211–322) were expressed in E. coli Rosetta2 (DE3) pLysS cells; GST (N); made in house; host or cells: E. coli Rosetta2 (DE3) pLysS
T3 sequence (Q8WYB5 211-322): T1 sequence (Q8WYB5 211-322 F218A) with A8F
The note with it: WT MORFDPF; peer review file; ref Klein et al., Structure 2017;25(4):650–654.e2; read-out: Kd (affinity) as quoted by reviewer; cited from earlier work.

Changes are numbered by the printed parent chain.

Turning to “H3K14ac: H3 peptide pre-acetylated at Lys14; residues 1–19 (binding), 1–29 (HAT)”, the Kd in the test with MORFDPF F218A (Run1) is 3.5; with MORFDPF F218A (Run2), 2.6; with MORFDPF F218A (Run3), 1.6; with MORFDPF F287A (MORFDPF F287A, NMR HSQC titration, 0.1–[…] 15N-labeled protein, peptide residues 1–19, PBS pH 6.5, 5 mM DTT, 8–10% D2O, 298 K, ± SD) it was 3500 ± 1400 µM; in test [1], 1.9 µM. In addition, the “decrease in binding of MORFDPF F287A compared to WT protein” value with MORFDPF F287A (NMR titration, F287A vs WT, same peptide) is reported as ~ 10^3 fold.
